# Experimental data published in US20250312470A1, “A PHARMACEUTICAL COMPOSITION OF ANTI-HER2 ANTIBODY-IMMUNE AGONIST CONJUGATE AND APPLICATIONS THEREOF” (GENEQUANTUM HEALTHCARE (SUZHOU) CO., LTD., priority 2022, published 2025).
# Legend:
# [1] = test system: MC38 hHER2 murine colorectal cancer cells overexpressing human HER2; experiment: In vivo anti-tumor efficacy, MC38 model overexpressing hHER2; parameters: species or system C57BL/6 mice; settings: 10 mg/kg intravenously
# [2] = test system: NCI-N87 human gastric cancer cells; experiment: In vivo anti-tumor efficacy, NCI N87 CDX model; parameters: species or system SCID Beige mice; settings: 5 mg/kg intravenously
# Procedure: For in vivo anti-tumor efficacy study, 1×10^7 NCI-N87 human gastric cancer cells were inoculated subcutaneously in the right flank of SCID Beige mice. […] The tumor volume was measured twice weekly with a caliper.
substance,measurement,setting,value
Ab0001: naked unmodified antibody Ab0001 (Trastuzumab) [reference compound],anti-tumor activity (tumor volume),[1],no obvious anti-tumor activity
same,anti-tumor activity (tumor volume),[2],very limited anti-tumor activity
